Tested on: SU-DHL-1
Assay: Growth inhibition of human SU-DHL1 cells after 3 days by luminescence-based CellTiter-Glo assay
Type: functional, cell-based

Structure (SMILES): Cc1cc(Nc2ncc(Cl)c(Nc3ccccc3S(=O)(=O)C(C)C)n2)c(OC(C)C)cc1C1CCN(CC(=O)NCCOCCOCCOCCOCCOCCNc2cccc3c2C(=O)N(C2CCC(=O)NC2=O)C3=O)CC1 (configuration not stated)
- growth inhibition (GI): Dose-dependent effect

Structure (SMILES): Cc1cc(Nc2ncc(Cl)c(Nc3ccccc3S(=O)(=O)C(C)C)n2)c(OC(C)C)cc1C1CCN(CC(=O)NCCNc2cccc3c2C(=O)N(C2CCC(=O)NC2=O)C3=O)CC1 (configuration not stated)
- growth inhibition (GI): Dose-dependent effect

— ChEMBL document CHEMBL4152197, “Proteolysis Targeting Chimeras (PROTACs) of Anaplastic Lymphoma Kinase (ALK)” (Eur J Med Chem, 2018)
